Reference: ChEMBL document CHEMBL4311974, “Synthesis of coumarin-sulfonamide derivatives and determination of their cytotoxicity, carbonic anhydrase inhibitory and molecular docking studies” (Eur J Med Chem, 2019)

Biological target: Carbonic anhydrase 2 (Homo sapiens, UniProt P00918)

Ki: > 10 µM
Compound: O=Cc1ccccc1OCc1cn(CCCOc2ccc3ccc(=O)oc3c2)nn1
